Results published in ChEMBL document CHEMBL4630905.

The chains behind the UniProt entries cited, without tags or fusion partners. Where a name states a change or a piece, a line headed by the entry shows the natural chain unless it says otherwise.
UniProt P41595, whole entry, looked up: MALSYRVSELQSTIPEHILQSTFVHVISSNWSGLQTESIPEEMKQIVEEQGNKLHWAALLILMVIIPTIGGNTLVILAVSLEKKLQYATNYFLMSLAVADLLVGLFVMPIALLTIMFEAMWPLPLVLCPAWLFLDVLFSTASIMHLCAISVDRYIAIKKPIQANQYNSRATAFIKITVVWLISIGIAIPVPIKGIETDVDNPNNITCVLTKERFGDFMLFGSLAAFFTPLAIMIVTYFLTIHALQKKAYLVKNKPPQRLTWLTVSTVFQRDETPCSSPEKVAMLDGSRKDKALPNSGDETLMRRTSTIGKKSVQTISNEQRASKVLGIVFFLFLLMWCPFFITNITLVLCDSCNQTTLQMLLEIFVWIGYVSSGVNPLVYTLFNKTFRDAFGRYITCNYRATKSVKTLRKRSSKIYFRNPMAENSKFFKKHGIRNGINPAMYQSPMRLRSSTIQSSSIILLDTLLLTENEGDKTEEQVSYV
UniProt P35372, whole entry, looked up: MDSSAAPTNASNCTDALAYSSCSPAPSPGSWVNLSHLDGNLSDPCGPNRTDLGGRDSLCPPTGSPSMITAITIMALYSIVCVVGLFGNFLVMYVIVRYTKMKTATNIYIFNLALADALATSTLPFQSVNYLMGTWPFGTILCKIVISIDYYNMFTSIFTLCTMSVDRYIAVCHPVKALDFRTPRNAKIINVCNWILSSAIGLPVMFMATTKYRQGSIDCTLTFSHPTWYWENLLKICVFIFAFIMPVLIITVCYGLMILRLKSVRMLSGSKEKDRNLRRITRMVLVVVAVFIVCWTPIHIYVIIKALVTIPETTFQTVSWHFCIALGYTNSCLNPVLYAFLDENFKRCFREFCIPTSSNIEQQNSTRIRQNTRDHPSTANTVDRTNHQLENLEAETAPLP
UniProt P41145: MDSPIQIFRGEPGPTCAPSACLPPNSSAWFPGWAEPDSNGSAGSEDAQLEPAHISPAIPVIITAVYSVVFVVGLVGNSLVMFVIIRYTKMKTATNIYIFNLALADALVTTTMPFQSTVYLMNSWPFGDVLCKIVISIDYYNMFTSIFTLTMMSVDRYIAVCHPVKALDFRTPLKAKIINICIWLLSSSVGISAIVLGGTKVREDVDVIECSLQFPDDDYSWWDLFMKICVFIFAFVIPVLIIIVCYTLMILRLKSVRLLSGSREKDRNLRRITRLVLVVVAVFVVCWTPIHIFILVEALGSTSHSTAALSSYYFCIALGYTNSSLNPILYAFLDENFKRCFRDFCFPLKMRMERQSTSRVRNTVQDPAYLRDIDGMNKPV
UniProt P41143, whole entry, looked up: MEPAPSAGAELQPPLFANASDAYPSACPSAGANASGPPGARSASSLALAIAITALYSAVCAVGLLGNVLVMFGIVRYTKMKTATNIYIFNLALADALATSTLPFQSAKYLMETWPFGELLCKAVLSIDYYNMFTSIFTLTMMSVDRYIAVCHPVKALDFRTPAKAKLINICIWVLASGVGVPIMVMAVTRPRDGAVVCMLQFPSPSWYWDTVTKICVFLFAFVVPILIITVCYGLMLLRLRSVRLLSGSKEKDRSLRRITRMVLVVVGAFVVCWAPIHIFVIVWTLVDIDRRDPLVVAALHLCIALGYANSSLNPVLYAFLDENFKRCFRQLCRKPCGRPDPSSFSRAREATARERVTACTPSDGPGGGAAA
UniProt Q99720, whole entry, looked up: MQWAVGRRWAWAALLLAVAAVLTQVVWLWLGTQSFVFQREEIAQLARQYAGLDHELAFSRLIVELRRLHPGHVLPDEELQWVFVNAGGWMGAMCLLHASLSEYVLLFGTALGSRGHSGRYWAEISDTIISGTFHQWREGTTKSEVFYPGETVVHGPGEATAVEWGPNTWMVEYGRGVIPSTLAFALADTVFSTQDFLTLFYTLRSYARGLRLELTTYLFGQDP

Experiments:
Conditions in all cases: Compound concentration 10.0 uM
[1] = biological target: 5-hydroxytryptamine receptor 2B (Homo sapiens) (UniProt P41595); assay: GPCRScan assay: inhibition of 5-HT2B; parameters: radioligand conc. used [nm] 1.0 – 2.0, parental cells stable HEK
[2] = biological target: Mu-type opioid receptor (Homo sapiens) (UniProt P35372); assay: GPCRScan assay: inhibition of MOR
[3] = biological target: Kappa-type opioid receptor (Homo sapiens) (UniProt P41145); assay: GPCRScan assay: inhibition of KOR
[4] = biological target: Delta-type opioid receptor (Homo sapiens) (UniProt P41143); assay: GPCRScan assay: inhibition of DOR; parameters: radioligand conc. used [nm] 1.0 – 2.0, parental cells stable HEK
[5] = biological target: Sigma non-opioid intracellular receptor 1 (Homo sapiens) (UniProt Q99720); assay: GPCRScan assay: inhibition of Sigma 1; parameters: radioligand conc. used [nm] 4.0 – 5.0, parental cells HEKT

Measured: inhibition

Cc1cc2c(-c3ccco3)cnc(N[C@@H]3CCN(C)C[C@H]3C(=O)NC3CCCCC3)c2[nH]c1=O
inactive: [1] 9.16% | [2] 27% | [3] 28.1% | [4] 40.9% | [5] 22.6%

Cc1cc2c(-c3ccco3)cnc(N[C@H]3CCN(C)C[C@@H]3C(=O)NC3CCCCC3)c2[nH]c1=O
inactive: [1] 24.3% | [2] 24.3% | [3] 34.9% | [4] 22%
